The record followed here is ChEMBL document CHEMBL1130385, “Synthesis and biological activities of conformationally restricted, tricyclic nonclassical antifolates as inhibitors of dihydrofolate reductases” (J Med Chem, 1997).

The target in test [1] is T1, Bifunctional dihydrofolate reductase-thymidylate synthase (Toxoplasma gondii, UniProt Q07422).
T1 sequence (Q07422 whole entry): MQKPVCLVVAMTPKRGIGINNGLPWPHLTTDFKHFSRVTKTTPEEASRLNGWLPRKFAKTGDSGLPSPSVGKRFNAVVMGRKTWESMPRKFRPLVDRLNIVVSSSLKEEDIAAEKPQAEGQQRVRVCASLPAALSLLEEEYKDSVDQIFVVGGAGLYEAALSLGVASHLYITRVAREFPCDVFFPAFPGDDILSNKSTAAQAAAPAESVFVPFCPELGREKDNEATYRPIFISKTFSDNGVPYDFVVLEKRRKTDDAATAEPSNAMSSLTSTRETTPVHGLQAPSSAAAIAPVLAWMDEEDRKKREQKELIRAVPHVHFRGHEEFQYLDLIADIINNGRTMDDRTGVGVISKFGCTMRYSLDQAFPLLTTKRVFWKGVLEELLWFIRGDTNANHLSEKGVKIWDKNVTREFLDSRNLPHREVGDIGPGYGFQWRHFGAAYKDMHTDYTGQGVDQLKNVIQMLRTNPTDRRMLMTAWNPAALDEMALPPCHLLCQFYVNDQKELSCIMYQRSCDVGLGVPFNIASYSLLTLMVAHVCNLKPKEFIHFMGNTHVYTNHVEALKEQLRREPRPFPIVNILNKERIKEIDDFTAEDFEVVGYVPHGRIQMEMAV
Kind of test: Inhibitory concentration against Toxoplasma gondii Dihydrofolate reductase.

The next test concerns the target T2, Dihydrofolate reductase (Pneumocystis carinii, UniProt P16184).
T2 sequence (P16184 whole entry): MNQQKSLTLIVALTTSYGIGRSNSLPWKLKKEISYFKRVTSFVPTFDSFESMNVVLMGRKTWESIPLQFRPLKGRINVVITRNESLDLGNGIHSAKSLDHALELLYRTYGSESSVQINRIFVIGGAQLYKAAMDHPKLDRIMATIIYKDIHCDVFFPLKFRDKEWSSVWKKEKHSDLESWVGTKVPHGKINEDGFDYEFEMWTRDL

`COc1c(Cl)c(-n2ccc3c4c(N)nc(N)nc4nc(=O)c-3c2)c(Cl)c(OC)c1OC` came in with an IC50 in test [1] of 2.3 µM.
In the case of `COc1cc(N2C=C3C(=O)N=c4nc(N)nc(N)c4=C3CC2)cc(OC)c1OC`, the half-inhibitory concentration (IC50) on Dihydrofolate reductase turned out to be 4.28 µM.
On the same count and under the same terms, to `COc1cc(N2C=Cc3c(cnc4nc(N)nc(N)c34)C2)cc(OC)c1OC` belongs 4.6 µM; to `COc1cc(N2CCC3c4c(N)nc(N)nc4NCC3C2)cc(OC)c1OC` (centres undefined), 2.2 µM.
